Experimental findings from publication PMC3958349 are described below.

The target of the assay is T1, GFP-p65, Q04206.
T1 chain: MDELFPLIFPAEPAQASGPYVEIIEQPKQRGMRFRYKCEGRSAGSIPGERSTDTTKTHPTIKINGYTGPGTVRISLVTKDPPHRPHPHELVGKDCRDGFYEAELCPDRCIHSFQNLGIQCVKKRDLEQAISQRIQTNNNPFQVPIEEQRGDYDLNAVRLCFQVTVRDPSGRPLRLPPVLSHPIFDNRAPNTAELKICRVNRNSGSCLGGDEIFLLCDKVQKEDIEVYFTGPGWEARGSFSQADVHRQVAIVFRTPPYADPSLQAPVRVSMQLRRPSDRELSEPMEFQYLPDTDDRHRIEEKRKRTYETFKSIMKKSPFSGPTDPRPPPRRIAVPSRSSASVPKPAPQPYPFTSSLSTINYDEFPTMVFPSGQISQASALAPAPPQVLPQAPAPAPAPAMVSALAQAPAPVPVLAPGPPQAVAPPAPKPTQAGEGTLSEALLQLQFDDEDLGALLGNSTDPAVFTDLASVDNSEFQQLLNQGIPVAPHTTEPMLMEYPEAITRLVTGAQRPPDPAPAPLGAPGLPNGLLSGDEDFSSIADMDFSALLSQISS
Briefly: number and brightness (N&B) analysis; living 3617 cells transiently expressing mCherry, mCherryGRwt, GFP and/or GFP-p65; 300 nM Cort and/or 10 ng/ml TNF-α; nuclear brightness ε in the green and red channels. As to conditions: remark: other sources report otherwise.

B1: GFP-p65, Q04206 1-551 (natural protein)
chain: T1 chain
As usually defined, the stoichiometry N is the number of molecules, sites or subunits per partner or assembly. Molecule B1 registered a stoichiometry N of 2.
